Assay [1] in a line: Selectivity ratio of Ki for mouse recombinant iNOS to Ki for rat recombinant nNOS.
Assay [2] is described as follows: Selectivity ratio of Ki for bovine recombinant eNOS to Ki for rat recombinant nNOS.

The source of these data is ChEMBL document CHEMBL1154816, “Potent and selective neuronal nitric oxide synthase inhibitors with improved cellular permeability” (Bioorg Med Chem Lett, 2010).

As to `Cc1cc(N)nc(CC2CNCC2OCCNCC(F)c2cccc(F)c2)c1` (racemic), the Ratio Ki came to 360 in assay [1] and 1000 in assay [2].
